Values joined by “and” are separate entries in the source; they are usually repeats but may differ in a detail not shown here. Equal values may be shown once.

By UniProt entry, the sequences of proteins in these tests, tags left out.
UniProt P22001, whole entry: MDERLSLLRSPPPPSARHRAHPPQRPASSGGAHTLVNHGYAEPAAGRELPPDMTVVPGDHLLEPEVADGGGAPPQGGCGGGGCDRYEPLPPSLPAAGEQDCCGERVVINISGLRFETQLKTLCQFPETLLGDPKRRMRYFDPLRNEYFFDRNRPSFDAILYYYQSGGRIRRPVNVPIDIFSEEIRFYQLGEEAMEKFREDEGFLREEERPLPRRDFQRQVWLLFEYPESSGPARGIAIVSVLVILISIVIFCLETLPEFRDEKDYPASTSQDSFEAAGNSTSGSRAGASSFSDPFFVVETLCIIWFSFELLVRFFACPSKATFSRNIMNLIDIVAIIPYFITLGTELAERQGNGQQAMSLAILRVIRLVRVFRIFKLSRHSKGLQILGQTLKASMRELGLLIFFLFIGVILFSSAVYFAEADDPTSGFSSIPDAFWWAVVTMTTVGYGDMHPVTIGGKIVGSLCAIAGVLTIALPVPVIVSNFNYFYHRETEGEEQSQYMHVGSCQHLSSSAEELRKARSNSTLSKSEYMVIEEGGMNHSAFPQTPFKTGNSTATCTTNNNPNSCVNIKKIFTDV

One assay has as its target hKv1.3 (Homo sapiens, UniProt P22001). The experiment in a line: cell-based. The conditions noted are these: Kv1.3 (IWQ) IC50 (nM, Avg).
Assay [1] deals with IFN-g secretion from T cells in human whole blood. In kind it is cell-based. The settings on record: read-out: WB (IFNg) IC50 (nM, Avg).
The test system of assay [2] is IL-2 secretion from T cells in human whole blood. In kind it is cell-based. The conditions noted are these: read-out: WB (IL-2) IC50 (nM, Avg).

As for `CC[C@H](C)[C@@H]1NC(=O)[C@@H](NC(=O)[C@H](CO)NC(=O)[C@@H](N)CCCNC(=N)N)CSSC[C@@H](C(=O)O)NC(=O)[C@H]([C@@H](C)O)NC(=O)CNC(=O)[C@@H]2CSSC[C@@H]3NC(=O)[C@H](CCC(N)=O)NC(=O)[C@H](Cc4ccccc4)NC(=O)[C@H](C)NC(=O)[C@H]([C@@H](C)O)NC(=O)[C@H](CSSC[C@H](NC(=O)[C@H](Cc4ccccc4)NC(=O)[C@H](CO)NC(=O)[C@H](CC(C)C)NC(=O)[C@H](CCCNC(=N)N)NC(=O)[C@H](Cc4ccc(O)cc4)NC(=O)[C@H](CCCCN)NC(=O)[C@H](CCSC)NC(=O)[C@H](CO)NC(=O)[C@H](Cc4c[nH]cn4)NC(=O)[C@H](CCCCN)NC3=O)C(=O)N[C@@H](CCCNC(=N)N)C(=O)N[C@@H](CCCCN)C(=O)N[C@@H]([C@@H](C)O)C(=O)N2)NC(=O)[C@H](CCCNC(=N)N)NC(=O)[C@H](CO)NC(=O)[C@H](Cc2cccc3ccccc23)NC(=O)[C@@H]2CCCN2C(=O)[C@H]([C@@H](C)CC)NC(=O)[C@H]([C@@H](C)O)NC(=O)[C@H](CC(=O)O)NC1=O` [[1-Nal9]ShK], the figures for the IC50 (against hKv1.3; in assay [1]) were 0.473 nM and 0.666 nM, respectively.
In the same order, the values of `CC[C@H](C)[C@@H]1NC(=O)[C@@H](NC(=O)[C@H](CO)NC(=O)[C@@H](N)CCCNC(=N)N)CSSC[C@@H](C(=O)O)NC(=O)[C@H]([C@@H](C)O)NC(=O)CNC(=O)[C@@H]2CSSC[C@@H]3NC(=O)[C@H](CCC(N)=O)NC(=O)[C@H](Cc4ccccc4)NC(=O)[C@H](C)NC(=O)[C@H]([C@@H](C)O)NC(=O)[C@H](CSSC[C@H](NC(=O)[C@H](Cc4ccccc4)NC(=O)[C@H](CO)NC(=O)[C@H](CC(C)C)NC(=O)[C@H](CCCNC(=N)N)NC(=O)[C@H](Cc4ccc(O)cc4)NC(=O)[C@H](CCCCN)NC(=O)[C@H](CCSC)NC(=O)[C@H](CO)NC(=O)[C@H](Cc4c[nH]cn4)NC(=O)[C@H](CCCCN)NC3=O)C(=O)N[C@@H](CCCNC(=N)N)C(=O)N[C@@H](CCCCN)C(=O)N[C@@H]([C@@H](C)O)C(=O)N2)NC(=O)[C@H](CCCCN)NC(=O)[C@H](CO)NC(=O)[C@H](CCCCN)NC(=O)[C@@H]2CCCN2C(=O)[C@H]([C@@H](C)CC)NC(=O)[C@H]([C@@H](C)O)NC(=O)[C@H](CC(=O)O)NC1=O` [[Lys11]ShK] are 0.137 nM and 0.252 nM.
`CC[C@H](C)[C@@H]1NC(=O)[C@@H](NC(=O)[C@H](CO)NC(=O)[C@@H](N)CCCNC(=N)N)CSSC[C@@H](C(N)=O)NC(=O)[C@H]([C@@H](C)O)NC(=O)CNC(=O)[C@@H]2CSSC[C@@H]3NC(=O)[C@H](CCCCN)NC(=O)[C@H](Cc4ccccc4)NC(=O)[C@H](C)NC(=O)[C@H]([C@@H](C)O)NC(=O)[C@H](CSSC[C@H](NC(=O)[C@H](Cc4ccccc4)NC(=O)[C@H](CO)NC(=O)[C@H](CC(C)C)NC(=O)[C@H](CCCNC(=N)N)NC(=O)[C@H](Cc4ccc(O)cc4)NC(=O)[C@H](CCCCN)NC(=O)[C@H](CCSC)NC(=O)[C@H](CO)NC(=O)[C@H](Cc4c[nH]cn4)NC(=O)[C@H](CCCCN)NC3=O)C(=O)N[C@@H](CCCNC(=N)N)C(=O)N[C@@H](CCCCN)C(=O)N[C@@H]([C@@H](C)O)C(=O)N2)NC(=O)[C@H](CCCNC(=N)N)NC(=O)[C@H](CO)NC(=O)[C@H](CCCCN)NC(=O)[C@@H]2CCCN2C(=O)[C@H]([C@@H](C)CC)NC(=O)[C@H]([C@@H](C)O)NC(=O)[C@H](CC(=O)O)NC1=O` [[Lys16]ShK-amide]: the concentration for half-maximal inhibition (IC50) (in general, the concentration at which inhibition is half-maximal) on hKv1.3 is 0.2 nM and 0.174 nM; in assay [2], 0.223 nM; in assay [1], 0.278 nM.

For the origin of these results see patent publication US20120121591A1 (priority 2009, published 2012).
